Laboratory results as given in article PMC10741027, “Risk Assessment of Psychotropic Drugs on Mitochondrial Function Using In Vitro Assays” (Biomedicines, 2023).

System: rat liver mitochondria (CII-linked respiration)
Assay: High-resolution respirometry, MMP and ROS in isolated rat liver mitochondria (Oroboros O2k)
Assay type: biochemical

SMILES: Cc1cc2c(s1)Nc1ccccc1N=C2N1CCN(C)CC1 [Olanzapine]
- Mode of action on respiration in isolated RLM (in words): did not affect respiration
